According to ChEMBL document CHEMBL5512649, “Drug development and potential targets for Cushing's syndrome” (Eur J Med Chem, 2024):

Target: T1, dCTP pyrophosphatase 1 (Homo sapiens, UniProt Q9H773)
T1 sequence (Q9H773 whole entry): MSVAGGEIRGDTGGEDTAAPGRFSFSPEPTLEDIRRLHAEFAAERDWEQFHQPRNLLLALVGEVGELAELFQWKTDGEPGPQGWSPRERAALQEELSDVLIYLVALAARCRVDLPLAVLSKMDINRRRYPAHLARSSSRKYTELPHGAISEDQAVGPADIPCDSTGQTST
Assay: Inhibition of DCTPP1 (unknown origin)

Work on CC(C)[C@]12O[C@H]1[C@@H]1O[C@]13[C@]1(O[C@H]1C[C@H]1C4=C(CC[C@@]13C)C(=O)OC4)[C@@H]2O [TRIPTOLIDE] yielded an IC50 of 10 nM.
